## scFv variants of Ab-14 (light chain) against a SARS-CoV-2 spike peptide

The measurements come from Li et al. 2023 (doi:10.1038/s41467-023-39022-2) through the FLAb antibody collection.

All variants were tested on one target, the spike HR2 peptide PDVDLGDISGINAS (SARS-CoV-2).

The variants keep the heavy chain, the linker and the frameworks of Ab-14 (scFv order VH, a (GGGGS)3 linker, VL).
VH: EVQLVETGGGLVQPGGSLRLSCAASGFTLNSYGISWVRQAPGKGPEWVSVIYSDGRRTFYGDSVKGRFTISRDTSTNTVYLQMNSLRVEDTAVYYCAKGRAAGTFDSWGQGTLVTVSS
VL: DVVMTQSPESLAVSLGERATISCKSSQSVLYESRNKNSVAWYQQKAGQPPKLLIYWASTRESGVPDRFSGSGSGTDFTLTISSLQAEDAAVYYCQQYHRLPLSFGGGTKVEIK

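The starting antibody came from a phage panning campaign against this peptide. Designed CDR sequences, proposed from the first random library and measured here. Several design methods are mixed in this list. The scFvs were displayed on barcoded MATa yeast, the peptide on MATalpha yeast. Pairs that bind mate more often; barcode pairs of the diploids are counted by sequencing. Each replicate has its own calibration line, from reference interactions of the BCL2 family. There are six technical replicates.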

Positions count from residue 1 of the parent VL; K24H puts H in place of K. This list holds designs with at most six substitutions. Scale: log10 of Kd in nM, estimated from mating counts; low values are strong binders. Replicates are averaged; those with no signal do not enter the mean. "nd" means that the variant was in the library but no mating with the target was seen in any replicate; the authors take this as a sign of poor binding, and no number exists. Order: sorted from the lowest average up, undetected variants last.

The variant K24H/S25V/W56N/A57G gave -0.43 (6 of 6 replicates; controls 1 of 18). The variant S25L/W56D/E61L/Q96D showed -0.33 (6 of 6 replicates; controls 0 of 18). The variant S25L/S26D/W56G/T59Q showed -0.24 (6 of 6 replicates; controls 0 of 18). The variant S25L/S33E/S38N/W56H showed -0.16 (6 of 6 replicates; controls 2 of 18). The variant S25L/S26Q/V29D/W56H/E61L showed -0.16 (6 of 6 replicates; controls 0 of 18). For V29D/K36G/W56D/E61M/S62D, the assay gave -0.16 (6 of 6 replicates; controls 0 of 18). The variant S25L/S26E/S28G/Y31M/W56H/T59M showed -0.13 (6 of 6 replicates; controls 3 of 18).

With S25F/N35T/S38G/W56N/A57G the result was -0.11 (6 of 6 replicates; controls 2 of 18). The variant S25L/S26Q/W56E/E61L gave -0.09 (6 of 6 replicates; controls 0 of 18). The variant S25L/L30E/S38N/W56H gave -0.07 (6 of 6 replicates; controls 3 of 18). The variant S25L/S26L/S38N/W56H/S62D/H98A gave -0.06 (6 of 6 replicates; controls 0 of 18). With Q27I/V29K/R34M/W56N/A57G the result was 0.04 (6 of 6 replicates; controls 1 of 18). With S25L/S26L/V29E/W56N the result was 0.08 (6 of 6 replicates; controls 1 of 18). With W56G/R99C the result was 0.09 (6 of 6 replicates; controls 2 of 18).

The variant S25L/S38Q/W56G/E61M gave 0.11 (6 of 6 replicates; controls 1 of 18). With S25V/S26Q/V29E/W56Q the result was 0.13 (6 of 6 replicates; controls 1 of 18). The variant S25L/S26P/L30Q/W56S showed 0.17 (6 of 6 replicates; controls 0 of 18). The variant S25L/V29Q/N35M/W56N/E61L gave 0.18 (6 of 6 replicates; controls 0 of 18). The variant S25L/S26P/L30P/W56S showed 0.19 (6 of 6 replicates; controls 3 of 18). The variant Q27I/V29W/R34E/W56E/T59Q showed 0.25 (6 of 6 replicates; controls 0 of 18). The variant S25L/S26R/V29E/W56Q/S103T showed 0.28 (6 of 6 replicates; controls 0 of 18).

The variant Q27T/V29Y/K36E/W56E/S62Q showed 0.36 (6 of 6 replicates; controls 0 of 18). The variant S25L/Q27F/S28G/W56G/Q96A gave 0.37 (6 of 6 replicates; controls 0 of 18). With S25V/S26L/L30V/W56H/S62D the result was 0.46 (6 of 6 replicates; controls 1 of 18). With S26G/S28G/W56G/T59Q/E61F the result was 0.57 (6 of 6 replicates; controls 0 of 18). For S25L/S26Q/Q27M/V29T, the assay gave 0.69 (6 of 6 replicates; controls 0 of 18). The variant S25L/S26P/V29T/S38A/W56N gave 0.74 (6 of 6 replicates; controls 2 of 18). For K24H/Q27E/K36G/W56N, the assay gave 0.75 (6 of 6 replicates; controls 2 of 18).

For L30T/R34D, the assay gave 0.89 (6 of 6 replicates; controls 0 of 18). The variant N35A/V39I/R99H/S103C showed 0.99 (1 of 6 replicates; controls 0 of 18). The variant Q27I/V29Y/R34E/W56A gave 1.04 (6 of 6 replicates; controls 0 of 18). The variant S25I/S103W gave 1.09 (6 of 6 replicates; controls 1 of 18). For Y31M/R34L/W56H/E61I/S62W, the assay gave 1.13 (6 of 6 replicates; controls 1 of 18). For S25F/E61N, the assay gave 1.22 (4 of 6 replicates; controls 0 of 18). The variant W56H/R99V gave 1.26 (6 of 6 replicates; controls 0 of 18).

The variant S25I/H98Q/L100S showed 1.27 (6 of 6 replicates; controls 2 of 18). With S25H/S33C/R34S the result was 1.35 (5 of 6 replicates; controls 1 of 18). The variant S25L/S26P/V29H/W56Q/E61L showed 1.51 (6 of 6 replicates; controls 2 of 18). With N35G/Y97M the result was 1.94 (3 of 6 replicates; controls 0 of 18). For V29M/R34D/S58G/S62A/H98M, the assay gave 2.05 (5 of 6 replicates; controls 0 of 18). For S26D/S38N/V39I/T59K/Q96T, the assay gave 2.08 (6 of 6 replicates; controls 1 of 18). The variant S33D/V39H/H98A gave 2.08 (1 of 6 replicates; controls 0 of 18).

For S25Q/W56Y, the assay gave 2.15 (2 of 6 replicates; controls 1 of 18). For L30P/N35L/K36H/W56H/A57K/S62Y, the assay gave 2.21 (6 of 6 replicates; controls 1 of 18). The variant K36N/W56Q/S62Y showed 2.24 (5 of 6 replicates; controls 1 of 18). With Y31R/S33D/T59A the result was 2.31 (5 of 6 replicates; controls 2 of 18). The variant S26R/S58M gave nd (0 of 6 replicates; controls 0 of 18). For Q27V/E32D/R34E/S38P/R60H, the assay gave nd (0 of 6 replicates; controls 0 of 18). The variant V29C/N37Y gave nd (0 of 6 replicates; controls 1 of 18).

Excerpt, the first 7 entries:

changes,"log10 Kd (nM), mean",seen in,signal with controls
K24H/S25V/W56N/A57G,-0.43,6 of 6,1 of 18
S25L/W56D/E61L/Q96D,-0.33,6 of 6,0 of 18
S25L/S26D/W56G/T59Q,-0.24,6 of 6,0 of 18
S25L/S33E/S38N/W56H,-0.16,6 of 6,2 of 18
S25L/S26Q/V29D/W56H/E61L,-0.16,6 of 6,0 of 18
V29D/K36G/W56D/E61M/S62D,-0.16,6 of 6,0 of 18
S25L/S26E/S28G/Y31M/W56H/T59M,-0.13,6 of 6,3 of 18

A sequence measured in both rounds can read differently, since the two assays cover different ranges. As a blank, each scFv also met three strains without target: over all light chain designs, 4% of these pairings were detected, typically at 2.64 and seldom below 1.59. The control count says in how many pairings with the empty strains this scFv gave a signal. In the paper, a design with two or fewer of six values counts as a poor binder. Of ten entries with the parent sequence, four were seen in most replicates (averages 0.34 to 2.37), three in one and three in none, so single entries are noisy.